Here are results for two compounds from article PMC10922772 (ACS infectious diseases, 2024).

Structures are written as SMILES.

The target of this experiment is SARS-CoV-2 Mpro (Severe acute respiratory syndrome coronavirus 2, UniProt P0DTD1). As to the kind of experiment: biochemical. Particulars: read-out: % inhibition at 20 μM.

For `C=CC(=O)N(c1ccc(C(C)(C)C)cc1)C(C(=O)NC(C)(C)C)c1cccnc1` (centres unmarked) [Compound 27, N-(4-(tert-Butyl)phenyl)-N-(2-(tert-butylamino)-2-oxo-1-(pyridin-3-yl)ethyl)acrylamide], the inhibition at 20 µM was 35%.
To `C=CC(=O)N(c1ccc(C(C)(C)C)cc1)C(C(=O)NCc1ccccc1)c1cccnc1` (centres unmarked) [Compound 28, N-(2-(Benzylamino)-2-oxo-1-(pyridin-3-yl)ethyl)-N-(4-(tert-butyl)phenyl)acrylamide] belongs 23%.
